Laboratory results reported in publication PMC7430649.

Test system: Nc1ncnc2c1ncn2[C@@H]1O[C@H](COP(=O)(O)OP(=O)(O)OP(=O)(O)O)[C@@H](O)[C@H]1O
Assay: purified protein
Conditions: saturating 17mer ssDNA ODN1 (20 μM nucleotides), 10 nM Bad, 1 mM MgCl2, 50 mM NaCl, pH 8.0, 25 °C

Bad (bacterial DNA2-like helicase-nuclease) (Geobacillus stearothermophilus)
Km: 223 ± 24 µM | kcat: 101 ± 4 s⁻¹
